## AlphaSeq binding of Ab-14 heavy chain variants to a spike HR2 peptide

Values reported by Li et al. 2023, doi:10.1038/s41467-023-39022-2 (FLAb copy).

All variants were tested on one target, the spike HR2 peptide PDVDLGDISGINAS (SARS-CoV-2).

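Phage display of a naive human antibody library on the peptide gave the parent. This is the validation round: designs drawn from the data on random variants, tested in the same kind of assay. Their group label is 14H_Rand (Rand: our label for a block that the file lists under HC and that is probably the random mutants of the ten best first-round binders). The scFvs were displayed on barcoded MATa yeast, the peptide on MATalpha yeast. The frequency of each diploid, read from paired DNA barcodes, reflects how well the two displayed proteins bind. The ratio of observed to expected reads was calibrated, replicate by replicate, on BCL2-family standards whose Kd was known from biolayer interferometry. Mating was done six times.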

Ab-14 is the parent antibody, in scFv form: VH, then three GGGGS repeats, then VL. The light chain is unchanged in all variants.
VH: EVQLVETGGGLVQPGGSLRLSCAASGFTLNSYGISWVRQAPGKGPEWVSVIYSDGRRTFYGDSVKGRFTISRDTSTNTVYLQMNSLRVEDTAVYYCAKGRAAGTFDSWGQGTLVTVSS
VL: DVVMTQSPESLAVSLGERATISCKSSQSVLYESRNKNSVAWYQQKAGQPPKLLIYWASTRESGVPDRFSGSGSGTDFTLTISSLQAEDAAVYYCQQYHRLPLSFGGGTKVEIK

Variants are written as CDR1, CDR2 and CDR3 of the heavy chain (limits as in the source). Parent: GFTLNSYGIS, VIYSDGRRTFYGDSVK, GRAAGTFDS.
The read-out is the apparent dissociation constant on a log10 scale (nM): the lower, the stronger.
Averages over replicates are reported, and they cover detected replicates only.
"nd" marks a missing value. The strain was present, yet no cells mated with the target were sequenced in that replicate, which points to weak or no binding.
Values of this round are not directly comparable with the first-round values of the same sequences.
The authors averaged sequences with at least three values out of six and counted those with two or fewer as poor binders.
Empty control strains, which show no peptide, gave a signal in 1% of pairings with all heavy chain designs; the median was 2.08 and 95% of these signals were weaker than 0.84. No background was subtracted. For each scFv, signals with the empty controls are counted beside the result.

Variant GFTLNQYGIS / VIYSDGRRTPYSDSVK / GRAAGFQDS showed nd, nd, nd, nd, nd, nd (controls 0 of 18).
Variant GFTLNQYGIS / VIYSDGCRSFYSDSVK / GRAAKFFDS showed 0.06, 0.53, 0.52, 0.39, 0.26, 0.90 (mean 0.44; controls 0 of 18).
Variant GFDLNSYGIS / VIYIDGRATFQGISVK / GRAAGWFNS showed nd, nd, nd, nd, nd, nd (controls 1 of 18).
Variant QFTLNSYGIF / VIYSDGRRTFYDDSVK / GQLAGTFDS showed nd, nd, nd, nd, nd, nd (controls 1 of 18).
Variant GFTLNSYGIS / VIYSDGRRTFYYDSFK / GRAGNTFDS showed nd, nd, nd, nd, nd, nd (controls 0 of 18).
Variant GFLLDSYGIS / VIYSDGRRTFYGASVK / GRQAGTALS showed nd, nd, nd, nd, nd, nd (controls 0 of 18).
Variant GFTLNSYGVS / VIYACGRRTFYGDSVK / GRAAVTNKS showed nd, nd, nd, nd, nd, nd (controls 0 of 18).
Variant GFTLSSYGIS / VIYSDGRRTFYSDSVK / GRAGGTFDS showed 3.49, 1.93, 2.01, 2.06, nd, 1.43 (mean 2.19; controls 1 of 18).
Variant GFTLNDHGIS / VIFSEGRRTQYIDSVK / GRAAGTFDS showed nd, nd, nd, nd, nd, nd (controls 0 of 18).
Variant GFTLGSYGIS / VIYSDGRRTFYSDNVK / GRAGGIFDS showed 0.74, 1.22, 0.70, 0.01, 0.35, nd (mean 0.60; controls 0 of 18).
Variant GFTLNDYGIS / VIYSPGRRTQYIDSVK / GRAAGTFDS showed 1.52, nd, nd, nd, nd, nd (controls 0 of 18).
Variant GFTLNEYGIS / VIYSDGRRQFYTDSVK / GRFAGTFDS showed nd, nd, nd, nd, nd, nd (controls 0 of 18).
Variant GFTLDSYGIS / VIYSDGRRTFNGLSVK / GRAAGTALS showed nd, nd, nd, nd, nd, nd (controls 0 of 18).
Variant GFTLNEYGIS / VIYSDGRRTFYTDSVK / GEFAGTFDS showed nd, nd, nd, 1.22, nd, 1.67 (mean 1.45; controls 0 of 18).
Variant GFDLNSYGIS / VIYSDGRRTFYGDSVK / GRAAQWYNS showed nd, nd, nd, nd, nd, nd (controls 0 of 18).
Variant GFTLNDYGIS / VIYSDGRRTQYIDSVK / GRAAGTFDF showed nd, 2.29, 2.33, 2.03, 2.43, nd (mean 2.27; controls 0 of 18).
Variant GFTLNSYGIS / VIYADGRRTFYGDSVK / GRLAGTNKS showed nd, nd, nd, nd, nd, nd (controls 0 of 18).
Variant GFTLNDYGIS / VMYSDGRRTFYGDDVK / GRAALTFDS showed nd, nd, nd, nd, nd, 1.92 (controls 0 of 18).
Variant LFTLNDYGIS / VIYSDGRRTQYIDSVK / GRAAGTKDS showed nd, nd, nd, nd, nd, nd (controls 0 of 18).
Variant GFTLGEYGIS / VIYSDGRRTFYGDSVK / GRAAVTKDQ showed nd, nd, nd, nd, nd, nd (controls 0 of 18).
Variant GFTLDSYGIS / VIYQDGRRTFYGDSVK / GRAAGTALS showed nd, nd, nd, nd, nd, nd (controls 0 of 18).
Variant GFDLNSYGIS / VIYSDERRTFYGDSKK / GRAAGWFNS showed nd, nd, nd, nd, nd, nd (controls 0 of 18).
Variant GFTLNQYGIS / VIYSDGRVTFYSDSVK / GWAAGFFDS showed nd, nd, nd, nd, nd, nd (controls 0 of 18).
Variant GFTPNEYGIS / VIYSDGRRTFYTDSVK / GRFAGTFDS showed nd, 0.98, 2.95, 2.31, 2.20, nd (mean 2.11; controls 1 of 18).
Variant GFTLNDYGIS / VIYSDGRRTFYGDSAK / GRAALTFIS showed nd, nd, nd, nd, nd, 1.26 (controls 0 of 18).
Variant GVTLNSIGIS / VIYADGRRTFYVDIVK / GRAAGTNKS showed nd, nd, nd, nd, nd, nd (controls 0 of 18).
Variant GFTLCQYGIS / VIYSDGRRTFYSDSHK / GRAAGFFDS showed nd, nd, nd, nd, nd, nd (controls 0 of 18).
Variant GFTLNQYGIS / VIYSDGRRTFYSDQVK / GRAAGFFDS showed nd, nd, nd, nd, nd, nd (controls 1 of 18).
Variant GFTLNQYGIS / VIYSDGRRTFYEDSVK / GRAAGFFDS showed nd, nd, nd, nd, nd, nd (controls 0 of 18).
Variant GFTLNSYGIS / VIYSDGPRTFYSDSVK / GRAGGTFDS showed nd, nd, nd, nd, nd, nd (controls 0 of 18).
Variant GFTLNDYDIS / VIYSDGERTQYIDSVK / GRAAGTFDS showed nd, nd, nd, nd, nd, nd (controls 0 of 18).
Variant GFTLNEYGIS / VIYSDGRRTFPTDSVK / GYFAGYMDS showed nd, nd, nd, nd, nd, nd (controls 0 of 18).
Variant GFTLNSPGIS / VIYADGRRTFYGDSVK / ARAAGTNKS showed nd, nd, nd, nd, 2.33, nd (controls 0 of 18).
Variant GFTLNSYGIS / VIYADGRRTFYGDRVK / GRASGTNKS showed nd, nd, nd, nd, nd, nd (controls 0 of 18).
Variant GFDLNSYGIS / VIYSDGRRTFYGDSVK / GRAAGWHNS showed nd, nd, nd, nd, nd, nd (controls 0 of 18).
Variant GCTLDSYGIS / VIYSYGRRTFYGDSVK / GRAAGTALS showed nd, nd, nd, nd, nd, nd (controls 0 of 18).
Variant GFTLNSGGIS / VIYSDGRRTFYIDSVK / GQLADTFDS showed nd, nd, nd, nd, nd, nd (controls 0 of 18).
Variant GFTLNSYGIS / VIYADGRRTFYGLSVK / GRAAGPNKS showed nd, nd, nd, nd, nd, nd (controls 0 of 18).
Variant CFTLNSYGIS / VIYSDGRTTFYGWSVK / GRAALTFSS showed nd, nd, nd, nd, nd, nd (controls 0 of 18).
Variant GFTLNEYGIS / VIYSDGRRTFYTDSSK / GRFAHTFDS showed nd, nd, nd, nd, nd, nd (controls 0 of 18).
Variant GFTLNQYGIS / VIYCDGRRTFYKDSVK / GRAAGFFDS showed nd, nd, nd, nd, nd, nd (controls 0 of 18).
Variant GFTVNEYGIS / VIYSDGRRTFYTGSVK / GRFAGTFDS showed nd, nd, nd, nd, nd, nd (controls 0 of 18).
Variant GFTLYDYGIS / VIYSDGRITQYIDSVK / GRAAGTFCS showed nd, nd, nd, nd, nd, nd (controls 0 of 18).
Variant GFKLDSYGIG / VIYSDGRRTFYGDSVK / GRAAGTALS showed nd, nd, nd, nd, nd, nd (controls 1 of 18).
Variant GFTLNEYGMS / VIYSDGRRTFYGDSVK / GRAADTFDQ showed nd, nd, 2.72, nd, nd, nd (controls 0 of 18).
Variant GFTLEEMGIS / VIYSDGRRTFYTDSVK / GRFAGTFDS showed 1.40, 2.05, nd, 0.71, 0.92, 1.62 (mean 1.34; controls 0 of 18).
Variant GFTINQYGIS / VIYSDGRRTFYSDSVK / GRAAGFFDS showed nd, nd, nd, nd, nd, nd (controls 1 of 18).
Variant GFTLNSYGIS / VIYADGRRTKYGSSVK / GRAAGTNKS showed nd, nd, nd, nd, nd, nd (controls 0 of 18).
Variant GFTLNSYGQS / VIYSDGRRTFYSDSVK / GRAGGTFDS showed nd, nd, nd, nd, nd, nd (controls 0 of 18).
Variant GFTLNSYGIS / VIYADGRRTFYGDSVK / GRAAITNKS showed nd, nd, nd, nd, nd, nd (controls 0 of 18).
Variant GFTLNVYGIS / VIYSDGRRTFTTDSVK / GRFAGTFDS showed nd, nd, 1.61, nd, nd, nd (controls 0 of 18).

7 of these entries, quoted again:

GFTLNEYGIS / VIYSDGRRTFYTDSSK / GRFAHTFDS: nd, nd, nd, nd, nd, nd (controls 0 of 18).
GFTLNEYGIS / VIYSDGRRTFPTDSVK / GYFAGYMDS: nd, nd, nd, nd, nd, nd (controls 0 of 18).
GFDLNSYGIS / VIYSDGRRTFYGDSVK / GRAAQWYNS: nd, nd, nd, nd, nd, nd (controls 0 of 18).
GFTVNEYGIS / VIYSDGRRTFYTGSVK / GRFAGTFDS: nd, nd, nd, nd, nd, nd (controls 0 of 18).
GFTLNSYGIS / VIYADGRRTFYGDSVK / GRAAITNKS: nd, nd, nd, nd, nd, nd (controls 0 of 18).
GFTLNSYGIS / VIYADGRRTFYGDSVK / GRLAGTNKS: nd, nd, nd, nd, nd, nd (controls 0 of 18).
GFTINQYGIS / VIYSDGRRTFYSDSVK / GRAAGFFDS: nd, nd, nd, nd, nd, nd (controls 1 of 18).